# Binding of CDR-mutated scFvs to a peptide of the spike HR2 region

Reference: Engelhart et al. 2022, doi:10.1038/s41597-022-01779-4. File: FLAb, binding data.

All variants were tested on one target, the spike HR2 peptide PDVDLGDISGINAS (SARS-CoV-2).

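Phage display of a naive human antibody library on the peptide gave the parent. The library (AAYL50) carries one to three amino acid substitutions per variant, with no insertions or deletions. In AlphaSeq, yeast of one mating type display the scFv and yeast of the other type display the target. The frequency of each diploid, read from paired DNA barcodes, reflects how well the two displayed proteins bind. The ratio of observed to expected reads was calibrated, replicate by replicate, on BCL2-family standards whose Kd was known from biolayer interferometry. Mating was done three times.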

Ab-14 is the parent antibody, in scFv form: VH, then three GGGGS repeats, then VL. The heavy chain is unchanged in all variants.
VH: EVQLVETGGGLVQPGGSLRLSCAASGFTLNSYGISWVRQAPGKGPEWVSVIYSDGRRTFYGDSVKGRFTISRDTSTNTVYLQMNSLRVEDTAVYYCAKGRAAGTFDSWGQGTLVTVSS
VL: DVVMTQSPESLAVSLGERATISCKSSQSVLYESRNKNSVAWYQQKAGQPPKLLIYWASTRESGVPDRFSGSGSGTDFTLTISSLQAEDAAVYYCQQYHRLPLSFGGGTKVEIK

Changes read parent residue, position, new residue, counted from the first residue of the VL shown.
All variants listed here change Y31 of the VL, counted from its first residue.
The read-out is the apparent dissociation constant on a log10 scale (nM): the lower, the stronger.
The mean shown is taken over the replicates in which the pair was detected.
"nd" marks a missing value. The strain was present, yet no cells mated with the target were sequenced in any replicate, which points to weak or no binding.

Variant K24H+Y31L+R60N showed nd (0 of 3 replicates).
Variant K24C+Y31F showed 2.14 (3 of 3 replicates).
Variant S25F+Y31H+R99P showed 4.31 (1 of 3 replicates).
Variant L30N+Y31E+E61K showed nd (0 of 3 replicates).
Variant Y31V+S38H+S103R showed 2.71 (1 of 3 replicates).
Variant Y31G+A57G showed 0.28 (3 of 3 replicates).
Variant L30M+Y31P+N35G showed 0.84 (3 of 3 replicates).
Variant Y31L+R34Q+K36W showed 1.13 (3 of 3 replicates).
Variant Y31H+V39A+A57V showed 5.01 (2 of 3 replicates).
Variant Y31G+S62M+P101S showed 1.99 (3 of 3 replicates).
Variant S26Y+Y31R showed nd (0 of 3 replicates).
Variant Y31T+A57M+S103H showed 2.11 (3 of 3 replicates).
Variant S28W+Y31T+E61K showed 3.23 (2 of 3 replicates).
Variant Y31D+T59L+H98E showed 1.10 (3 of 3 replicates).
Variant S28D+Y31Q+R99T showed 1.35 (3 of 3 replicates).
Variant Y31F+A40C showed 2.92 (1 of 3 replicates).
Variant Y31E+N37V+L100D showed 3.89 (2 of 3 replicates).
Variant Y31K+W56C showed 3.45 (2 of 3 replicates).
Variant Y31H+S58Q+S62K showed nd (0 of 3 replicates).
Variant S26Q+V29S+Y31N showed 1.49 (3 of 3 replicates).
Variant S28L+Y31T+R34D showed 1.36 (3 of 3 replicates).
Variant S25P+Y31K+S58T showed 2.52 (1 of 3 replicates).
Variant Y31Q+R99D+L100W showed 2.50 (3 of 3 replicates).
Variant K24F+Q27R+Y31R showed nd (0 of 3 replicates).
Variant S28N+Y31M+S58G showed 0.98 (3 of 3 replicates).
Variant V29H+Y31W+S62A showed nd (0 of 3 replicates).
Variant Y31L+E32H+L100K showed 3.94 (1 of 3 replicates).
Variant Y31T+W56G+L102Y showed 2.31 (3 of 3 replicates).
Variant L30S+Y31E+T59D showed 3.79 (2 of 3 replicates).
Variant V29W+Y31Q+S62H showed 0.76 (3 of 3 replicates).
Variant K24W+V29E+Y31R showed 2.11 (3 of 3 replicates).
Variant Y31M+E32M+E61N showed 1.44 (3 of 3 replicates).
Variant Y31V+K36P+T59G showed nd (0 of 3 replicates).
Variant Y31M+S58A+Q96M showed 0.88 (3 of 3 replicates).

The 5 strongest on average among those seen in every replicate, once more:

changes,"log10 Kd (nM), mean",replicates with signal
Y31G+A57G,0.28,3 of 3
V29W+Y31Q+S62H,0.76,3 of 3
L30M+Y31P+N35G,0.84,3 of 3
Y31M+S58A+Q96M,0.88,3 of 3
S28N+Y31M+S58G,0.98,3 of 3

Three control strains display no target. For library AAYL50, 18% of the pairings with them gave a signal, with a median of 4.19 and one signal in twenty below 2.99, so weak values seen in few replicates may be background.
In this assay the parent's reference entry averaged 0.65; its copy inside this library read 1.68.